Source: PubChem BioAssay
MITF TRPM1 HTS: activators of MITF-driven TRPM1 promoter reporter, primary screen, cell-based, SK-MEL-5, luciferase, single point; SK-MEL-5 TRPM1-promoter luciferase, 24 h; % of positive control, neutral wells = 0; hit rate 0.75% among 300,000; AID 588334, 2011; activation, % at 12.5 µM;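 active means mean activation of at least 80% with every replicate also reaching 80%; inconclusive means mean reaches 80% but some replicate falls short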;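 further: 0% = neutral control wells and 100% = parthenolide positive control wells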
miR122 inh: miR-122 Renilla sensor signal increase in Huh7, primary screen, miR-122 inhibitor project, cell-based, single point, plate reader. Huh7 miR-122 Renilla luciferase sensor, 48 h; neutral wells = 0, positive control = 100. AID 602342, 2012. activation (reporter increase), % at 12.5 µM. hit rate 0.3% among 340,000;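 active means mean replicate activation score at least 90 and every replicate individually at or above 90; inconclusive means only one of the two criteria met; inactive means neither criterion met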;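 further: higher luciferase means less miR-122 activity so hits act as miR-122 inhibitors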
UUG fidelity: modulators of yeast start codon fidelity, primary screen, whole organism, S. cerevisiae, single point, plate reader | AID 602363, 2012 | S. cerevisiae UUG-firefly luciferase reporter, luminescence/redox ratio | activity score, % at 18.7 µM | hit rate 0.13% among 350,000;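 active = replicate mean at a twofold rise or more, about +100% in these data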;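 also: firefly luciferase made from a UUG start codon reports start codon fidelity; reporter light over untreated wells divided by growth signal over untreated wells; some hits fall short of that in this replicate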
esBAF inh: Bmi1 luciferase reporter increase in mESCs, primary screen, esBAF inhibitor project, mouse ES cells, Bmi1 luciferase knock-in, single point | 24 h; 100% = twice the neutral-well signal | reporter increase, % at 12.5 µM | hit rate 2% among 350,000 | AID 602393, 2012; in the data active means activation above about 40%; inconclusive means no clear call, values can overlap the other calls;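 further: 0% = median of the plate's neutral control wells and 100% = double that signal; a rise in the Bmi1 reporter signal indicates esBAF inhibition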
PglD inh: C. jejuni PglD acetyltransferase inhibitors, primary screen, biochemical, DTNB colorimetric, single point | hit rate 0.098% among 360,000 | UDP-N-acetylbacillosamine N-acetyltransferase PglD (Campylobacter jejuni) | inhibition, % at 12.5 µM | purified PglD enzyme, DTNB colorimetric CoA detection; in the data active means inhibition above about 16%, passing the limit was not always enough; inconclusive means no clear call, values can overlap the other calls
Wnt act: Wnt/beta-catenin pathway activators, primary screen, cell-based, plate reader, single point | Wnt/beta-catenin reporter cell assay, activator | activation, % at 9.35 µM | hit rate 1.2% among 300,000 | AID 743398, 2014; in the data active means activation above about 30%, passing the limit was not always enough; inconclusive means no clear call, values can overlap the other calls;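 further: 0% = neutral control wells and 100% = positive control wells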
* marks the source's active call; other numbers are inactive results; ? = inconclusive; . = no result given; [ ] = remark or other dose. Shown are actives, neighbours in structure and some others; about 2.8% of the full set was active somewhere.

mol | MITF TRPM1 HTS | miR122 inh | UUG fidelity | esBAF inh | PglD inh | Wnt act
C[C@@H]1CN([C@@H](C)CO)C(=O)c2cccc(NC(=O)C3CCCCC3)c2O[C@@H]1CN(C)C(=O)Nc1ccc(C(F)(F)F)cc1 | . | -10[16.7 µM] | 6 | 3 | 1 | .
O=S(=O)(Nc1ccc2cn[nH]c2c1)c1cc(Br)ccc1Br | -8 | 180* | 1 | -1 | -2 | -4
CCOc1ccc(S(=O)(=O)Nc2ccc(Cl)cn2)c(C)c1C | . | 65 | -10 | 0 | 1 | 0
CCOc1cc(C)c(S(=O)(=O)Nc2ccc3cn[nH]c3c2)cc1C | -41 | 124* | -12 | -9 | 3 | .
Cc1ccc(S(=O)(=O)Nc2ccc3cn[nH]c3c2)c(C)c1 | -11 | . | -28 | 3 | 3 | 2
CCc1ccc(S(=O)(=O)Nc2ccc(Cl)cn2)cc1 | . | 178* | -12 | 8 | 6 | 0
CCOc1cc(C)c(S(=O)(=O)Nc2ccc(Cl)cn2)cc1C | . | 124* | -14 | -5 | -1 | -6
C[C@@H]1CN([C@@H](C)CO)C(=O)Cc2cc(NC(=O)Nc3cccc4ccccc34)ccc2O[C@@H]1CN(C)C(=O)Nc1ccc2c(c1)OCO2 | . | 13[16.7 µM] | 1 | -4 | 8 | .
C[C@H](CO)N1C[C@H](C)[C@H](CN(C)Cc2ccc(C(=O)O)cc2)Oc2ccc(NC(=O)Cn3cnnn3)cc2C1=O | . | -1[16.7 µM] | -4 | -2 | 4 | .
Cc1cc(C)c2c(N)c(C(=O)Nc3ccc(C)c(C)c3)sc2n1 | 126* | -10 | -17 | -22 | 1 | 21
COc1ccc(NC(=O)c2sc3nc(C)cc(C)c3c2N)cc1 | 104* | -4 | -3 | ? | 1 | 12
COc1ccccc1NC(=O)c1sc2nc(C)cc(C)c2c1N | 0 | -10 | -19 | 3 | -8 | -2
Cc1cc(C)c2c(N)c(C(=O)NC3CCCC3)sc2n1 | 29 | -6 | -3 | 35 | 0 | 10
Cc1cc(C)c2c(N)c(C(=O)N/N=C/c3cccs3)sc2n1 | . | -3 | -19 | . | 5 | 45*
COc1ccc(/C=N/NC(=O)c2sc3nc(C)cc(C)c3c2N)cc1 | . | -1 | 1 | . | 0 | -3
Cc1cc(C)c2c(N)c(C(=O)NCC3CCCCC3)sc2n1 | 88* | 24 | 37 | 8 | 1 | -4
COCC#Cc1ccc2c(c1)O[C@@H](CN(C)Cc1ccccn1)[C@@H](C)CN([C@H](C)CO)S2(=O)=O | . | 26[16.7 µM] | . | -1 | 8 | .
O=C(Nc1cccc(Cl)c1)N1C[C@@H]2[C@H](c3ccccc31)[C@@H](CO)N2C(=O)C1CC1 | . | 10[16.7 µM] | -4 | 0 | -7 | .
Cc1cccc(NC(=O)c2sc(Cl)nc2-c2ccccc2)c1 | 3 | 4 | 3 | 5 | -3 | .
Cc1cccc(NC(=O)c2sc3nc(N)c(C#N)cc3c2N)c1 | 106* | . | . | . | . | .
Cc1cc(C)c2c(N)c(C(=O)Nc3ccc([N+](=O)[O-])cc3)sc2n1 | 101* | 5 | -14 | ? | -4 | 16
Cc1cc(C)cc(NC(=O)c2sc3nc(C)cc(C)c3c2N)c1 | 63 | 0 | -16 | 70* | -9 | 11
Cc1cc(C)c2c(N)c(C(=O)Nc3ccc(F)cc3)sc2n1 | 52 | 58 | -33 | 26 | -4 | 51*
COc1cccc(-c2cnc3c(c2)C(=O)N([C@H](C)CO)C[C@H](C)[C@H](CN(C)C(=O)NC2CCCC2)O3)c1 | . | 18[16.7 µM] | 25 | -1 | -1 | .
C[C@@H]1CN([C@H](C)CO)S(=O)(=O)c2ccc(C#Cc3ccncc3)cc2O[C@H]1CN(C)C | . | -3[16.7 µM] | -3 | 3 | 3 | .
COc1cc(SC)ccc1C(=O)Nc1ncc(Cl)cc1Cl | 16 | . | . | . | . | 70*
COc1cc(SC)ccc1C(=O)OCC(=O)NCCNC(=O)COC(=O)c1ccc(SC)cc1OC | -4 | -4 | -13 | -5 | 5 | 2
CC(C)(C)c1ccc(NC(=O)Nc2ccc(OCC(=O)N3CCOCC3)cc2)cc1 | 90* | . | . | . | . | 11
COc1cc(SC)ccc1C(=O)Nc1ccccn1 | 15 | -4 | -47 | . | -2 | 1
COC(=O)c1ccc(COC(=O)c2ccc(SC)cc2OC)cc1 | 17 | 4 | 0 | 63* | 1 | -4
COc1cc(SC)ccc1C(=O)Nc1cccc(C)n1 | 101* | -2 | -20 | 45* | -3 | 19
Cc1ccc(S(=O)(=O)Nc2ccc3c(c2)C(=O)N([C@H](C)CO)C[C@@H](C)[C@H](CN(C)C(=O)Nc2ccc(F)cc2)OCCCC[C@H](C)O3)cc1 | . | -9[16.7 µM] | 13 | -4 | 4 | .
C[C@H]1CN([C@@H](C)CO)C(=O)c2cc(Br)cnc2O[C@H]1CN(C)C(=O)c1ccccc1F | . | 10[16.7 µM] | 25 | 3 | 5 | .
CCCNC(=O)Nc1ccc2c(c1)C(=O)N(C)[C@H]1CC[C@H](CC(=O)Nc3cccc(C)c3)O[C@@H]1CO2 | . | 50[16.7 µM] | 4 | 2 | 1 | .
CN(C)C(=O)c1cccc(-c2ccc3c(c2)[C@@H]2[C@@H](CCN2Cc2ccccc2F)[C@H](CO)N3)c1 | . | -9[16.7 µM] | 2 | 1 | 1 | .
C[C@@H]1CN([C@H](C)CO)S(=O)(=O)c2ccc(-c3ccc(C#N)cc3)cc2O[C@H]1CN(C)Cc1ccccn1 | . | . | -20 | 3 | 0 | .
COc1cc(SC)ccc1C(=O)Nc1ccon1 | . | -7 | -2 | 51* | 1 | 21
COc1cc(SC)ccc1C(=O)Nc1ccc(Br)cn1 | -56 | 5 | -63 | -83 | 4 | -4
COc1cc(SC)ccc1C(=O)Nc1ccc(C)cc1 | 14 | . | . | . | . | 50*
COc1cc(SC)ccc1C(=O)Nc1ccc(OCC(=O)N2CCOCC2)cc1 | 83* | . | -21 | 17 | 0 | -4
COc1cc(SC)ccc1C(=O)Nc1ccc(C)cc1C | 27 | -2 | -5 | . | 3 | .
CN(C)C(=O)C[C@H]1C=C[C@H](NC(=O)Nc2cccc(F)c2)[C@H](CO)O1 | . | . | -4 | 0 | 4 | .
C[C@@H]1CN([C@H](C)CO)C(=O)c2cc(NC(=O)Cc3cn(C)c4ccccc34)ccc2O[C@H]1CN(C)C(=O)NC1CCCCC1 | . | 11[16.7 µM] | 10 | 1 | -4 | .
CC1(C)Cc2c(c(N3CCOCC3)nc3sc(C(=O)Nc4ccccc4)c(N)c23)CO1 | 11 | . | 7 | 38 | 4 | 34*
CC1(C)Cc2c(c(N3CCOCC3)nc3sc(C(=O)Nc4cccc(Cl)c4)c(N)c23)CO1 | 0 | 0 | -13 | 8 | -1 | 2
COc1ccc2oc(=Nc3ccccc3)c(-c3nc4ccccc4[nH]3)cc2c1 | 12 | 1 | -16 | . | 2 | 44*
COc1ccc(-c2nc3ccccc3[nH]2)cc1 | 7 | . | . | . | . | 17

Wnt act, entries above that show a hit
mol | MITF TRPM1 HTS | miR122 inh | UUG fidelity | esBAF inh | PglD inh | Wnt act
Cc1cc(C)c2c(N)c(C(=O)N/N=C/c3cccs3)sc2n1 | . | -3 | -19 | . | 5 | 45*
Cc1cc(C)c2c(N)c(C(=O)Nc3ccc(F)cc3)sc2n1 | 52 | 58 | -33 | 26 | -4 | 51*
COc1cc(SC)ccc1C(=O)Nc1ncc(Cl)cc1Cl | 16 | . | . | . | . | 70*
COc1cc(SC)ccc1C(=O)Nc1ccc(C)cc1 | 14 | . | . | . | . | 50*
CC1(C)Cc2c(c(N3CCOCC3)nc3sc(C(=O)Nc4ccccc4)c(N)c23)CO1 | 11 | . | 7 | 38 | 4 | 34*
COc1ccc2oc(=Nc3ccccc3)c(-c3nc4ccccc4[nH]3)cc2c1 | 12 | 1 | -16 | . | 2 | 44*
